Read-outs that look alike come from different tables or passages of the source.

Sequences of proteins named here, by UniProt entry; tags and fusion partners are left off. Residues count along the entry.
UniProt Q30154, 30-266: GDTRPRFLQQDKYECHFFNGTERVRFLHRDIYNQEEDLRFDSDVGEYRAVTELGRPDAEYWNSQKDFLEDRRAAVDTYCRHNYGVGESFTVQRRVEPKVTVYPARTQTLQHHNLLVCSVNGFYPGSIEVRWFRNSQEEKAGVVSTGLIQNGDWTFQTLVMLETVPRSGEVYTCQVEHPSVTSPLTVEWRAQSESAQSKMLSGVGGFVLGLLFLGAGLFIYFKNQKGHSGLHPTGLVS

What all share (experiment): biochemical
Common to all, as to type: binding

The target of experiment [1] is HLA-DR DRB1*0101 (DR1) (Homo sapiens, UniProt P01903+P01911, A100R/D57E/F55L/F60I/F76Y/I96L/L162R/M171V/P40L/Q125E/R42F/V115G/Y59C).
In experiment [2] the target is HLA-DR DRB1*0401 (DR4) (Homo sapiens, UniProt P01903+P01911, A100K/A169T/F76Y/I96L/K127E/L162R/M171V/N62H/P40V/Q125Y/R42H/S133A/S149N/S66Y/V115G/V209L/W38E).
The target in experiment [3] is HLA-DR DRB1*0701 (DR7) (Homo sapiens, UniProt P01903+P01911, A100R/A102G/A103Q/D57E/D86V/E43K/F76Y/K127E/L162R/M171V/P40G/Q125H/Q99D/R33Q/R42Y/R54Q/S133A/S66F/T210M/V115G/Y107V/Y59L/Y89S).
In experiment [4] the target is HLA-DR DRB1*1101 (DR11) (Homo sapiens, UniProt P01903+P01911, A100R/A169T/A87E/I96F/K41T/L162R/M171V/P40S/Q125H/Q178H/Q39Y/Q99D/R42S/S66Y/T262R/V115G/W38E). Conditions: DRB1 *1101.
Experiment [5] deals with HLA-DR DRB1*1501 (DR15) (Homo sapiens, UniProt P01903+P01911).
Experiment [6] addresses HLA-DR DRB4*0101 (DR53) (Homo sapiens, UniProt P01903+P13762, G164S). As to conditions: DRB4 *0101.
The target in experiment [7] is HLA-DR DRB5*0101 (DR51) (Homo sapiens, UniProt P01903+Q30154). Conditions: DRB5 *0101.
The target in experiment [8] is HLA-DR DRB1*0405 (DR4) (Homo sapiens, UniProt P01903+P01911, A100R/A169T/D86S/F76Y/I96L/K127E/L162R/M171V/N62H/P40V/Q125Y/R42H/S133A/S149N/S66Y/V115G/V209L/W38E).
The target of experiment [9] is HLA-DR DRB1*0802 (DR8) (Homo sapiens, UniProt P01903+P01911, A100R/A103L/A169T/F76Y/H45Y/I96F/K41T/L162R/M171V/P40S/Q125H/Q178H/Q39Y/Q99D/R218S/R42G/S66Y/V115G/W38E).
For experiment [10], the target named is HLA-DR DRB1*1302 (DR13) (Homo sapiens, UniProt P01903+P01911, A100E/A169T/K41T/L162R/M171V/P40S/Q125H/Q178H/Q39Y/Q99D/R42S/S66N/T262R/V115G/W38E/Y61H).
For experiment [11], the target named is HLA-DR DRB1*0901 (DR9) (Homo sapiens, UniProt P01903+P01911, A100R/A103E/D57H/D86V/F55Y/F60I/F76Y/I96F/K127E/L162R/M171V/P40D/Q125H/Q99R/R33Q/R42F/S133A/S66N/T210M/V115G/W38K/Y107V/Y59G/Y89S).

As to `CC[C@H](C)[C@H](NC(=O)CN)C(=O)N[C@@H](CCC(N)=O)C(=O)N[C@H](C(=O)N[C@@H](CC(C)C)C(=O)N[C@@H](CCSC)C(=O)NCC(=O)N[C@@H](CCCNC(=N)N)C(=O)N[C@@H](CC(C)C)C(=O)N[C@@H](CCC(=O)O)C(=O)N[C@@H](CC(=O)O)C(=O)NCC(=O)N[C@@H](CO)C(=O)N1CCC[C@H]1C(=O)N[C@@H](CCCNC(=N)N)C(=O)O)[C@@H](C)O`, the IC50 in [1] (DRB1 *0101) is 0.098 µM; in experiment [2] (DRB1 *0401), 11.9 µM; in [3] (DRB1 *0701), 19 µM; in experiment [4], 4.47 µM; in experiment [5] (DRBI *1501), 1.35 µM; in [6] it was 2.11 µM. Also, the IC50 in experiment [7] was determined as 18 µM.
Take `CC[C@H](C)[C@H](NC(=O)[C@@H](NC(=O)[C@H](Cc1c[nH]c2ccccc12)NC(=O)[C@H](C)NC(=O)[C@H](CS)NC(=O)[C@H](Cc1c[nH]cn1)NC(=O)[C@H](CO)NC(=O)[C@H](CC(=O)O)NC(=O)[C@H](CCC(=O)O)NC(=O)[C@H](CCCCN)NC(=O)[C@H](C)NC(=O)[C@H](CCCCN)NC(=O)[C@H](CC(C)C)NC(=O)[C@H](Cc1ccc(O)cc1)NC(=O)[C@@H](N)Cc1c[nH]cn1)[C@@H](C)O)C(=O)O`: the IC50 is 2.06 µM in experiment [2] (DRB1 *0401); 3.7 µM in experiment [8] (DRB1 *0405); 0.581 µM in [3] (DRB1 *0701); 7.5 µM in experiment [6]; 2.63 µM in experiment [7].
Regarding `CC[C@H](C)[C@H](N)C(=O)N1CCC[C@H]1C(=O)N[C@@H](CCCCN)C(=O)N[C@@H](CCC(=O)O)C(=O)N[C@@H](CCC(N)=O)C(=O)N[C@@H](CCCCN)C(=O)N[C@@H](Cc1ccc(O)cc1)C(=O)N[C@@H](CO)C(=O)N[C@@H](Cc1ccccc1)C(=O)N[C@@H](CC(C)C)C(=O)N[C@@H](CCC(N)=O)C(=O)N[C@@H](CC(N)=O)C(=O)N1CCC[C@H]1C(=O)N[C@@H](CCC(N)=O)C(=O)N[C@H](C(=O)O)[C@@H](C)O`, the IC50 is 0.128 µM in [1] (DRB1 *0101); 0.009 µM in [8] (DRB1 *0405); 8.31 µM in [3] (DRB1 *0701); 13.6 µM in experiment [9]; 13.7 µM in [10] (DRBI *1302); 16.2 µM in [5] (DRBI *1501). In experiment [7], this compound showed an IC50 of 13.1 µM.
For `CC[C@H](C)[C@H](NC(=O)[C@H](C)NC(=O)[C@H](CCC(=O)O)NC(=O)[C@@H](N)CCCCN)C(=O)N[C@@H](CO)C(=O)N1CCC[C@H]1C(=O)N1CCC[C@H]1C(=O)N[C@@H](CC(=O)O)C(=O)N[C@@H](C)C(=O)N[C@@H](C)C(=O)N[C@@H](CO)C(=O)N[C@@H](C)C(=O)N[C@@H](C)C(=O)N1CCC[C@H]1C(=O)N[C@@H](CC(C)C)C(=O)O`, the IC50 in experiment [1] (DRB1 *0101) turned out to be 15.5 µM; in experiment [8] (DRB1 *0405), 28.8 µM; in [3] (DRB1 *0701) it was 6.66 µM; in experiment [9], 6.39 µM; in experiment [11] (DRB1 *0901) it was 5.73 µM; in [4] it was 0.601 µM. Also, the IC50 was found to be 9.27 µM in experiment [10] (DRBI *1302), 1.2 µM in experiment [5] (DRBI *1501), 2.99 µM in experiment [6] and 0.31 µM in experiment [7].
As to `CSCC[C@H](N)C(=O)N[C@@H](CO)C(=O)N[C@@H](Cc1ccc(O)cc1)C(=O)N[C@@H](CC(N)=O)C(=O)N[C@@H](CC(C)C)C(=O)N[C@@H](CC(C)C)C(=O)NCC(=O)N[C@@H](Cc1ccccc1)C(=O)N[C@@H](CC(C)C)C(=O)N[C@@H](CCC(N)=O)C(=O)N[C@@H](CCCNC(=N)N)C(=O)N[C@@H](CO)C(=O)N[C@@H](CO)C(=O)N[C@@H](CC(N)=O)C(=O)N[C@@H](CS)C(=O)O`, the IC50 in [2] (DRB1 *0401) is 0.366 µM; in experiment [8] (DRB1 *0405), 0.788 µM; in experiment [9], 3.42 µM; in experiment [11] (DRB1 *0901), 3.65 µM; in experiment [4], 3.63 µM; in experiment [5] (DRBI *1501) it was 0.089 µM. The IC50 turned out to be 6.5 µM in experiment [6] and 0.71 µM in experiment [7].
Turning to `CC(C)C[C@H](NC(=O)[C@H](CC(C)C)NC(=O)[C@@H](N)CC(N)=O)C(=O)N[C@@H](C)C(=O)N[C@@H](CC(N)=O)C(=O)N[C@H](C(=O)N[C@@H](Cc1ccc(O)cc1)C(=O)N[C@@H](Cc1c[nH]cn1)C(=O)N[C@@H](CCC(N)=O)C(=O)N[C@@H](CCCNC(=N)N)C(=O)N[C@@H](CC(N)=O)C(=O)N[C@@H](Cc1c[nH]cn1)C(=O)N[C@@H](CC(C)C)C(=O)N[C@@H](CCCCN)C(=O)N[C@H](C(=O)O)[C@@H](C)O)C(C)C`, the IC50 was 0.152 µM in experiment [1] (DRB1 *0101); 1.04 µM in experiment [2] (DRB1 *0401); 1.49 µM in experiment [8] (DRB1 *0405); 0.453 µM in experiment [9]; 4.16 µM in experiment [11] (DRB1 *0901); 8.26 µM in [4]. For the same compound, the IC50 worked out at 0.061 µM in [10] (DRBI *1302), 0.02 µM in experiment [5] (DRBI *1501), 3.07 µM in experiment [6] and 0.065 µM in experiment [7].
With `CC(C)C[C@H](NC(=O)[C@H](CC(=O)O)NC(=O)[C@H](Cc1ccc(O)cc1)NC(=O)[C@@H](NC(=O)[C@H](CC(N)=O)NC(=O)[C@H](CO)NC(=O)[C@H](CC(=O)O)NC(=O)[C@H](CO)NC(=O)[C@H](C)NC(=O)CNC(=O)[C@H](Cc1ccc(O)cc1)NC(=O)[C@@H](NC(=O)[C@H](CC(C)C)NC(=O)[C@H](CO)NC(=O)[C@@H](N)CC(N)=O)C(C)C)C(C)C)C(=O)O`, the IC50 was found to be 0.19 µM in [2] (DRB1 *0401), 0.201 µM in experiment [3] (DRB1 *0701), 3.9 µM in experiment [11] (DRB1 *0901) and 14 µM in experiment [10] (DRBI *1302).
With `CC[C@H](C)[C@H](NC(=O)[C@H](CO)NC(=O)[C@H](CCC(=O)O)NC(=O)[C@H](CO)NC(=O)[C@H](Cc1ccccc1)NC(=O)[C@H](CS)NC(=O)[C@H](CC(C)C)NC(=O)[C@H](CO)NC(=O)[C@@H](N)[C@@H](C)O)C(=O)N1CCC[C@H]1C(=O)N[C@H](C(=O)N1CCC[C@H]1C(=O)N[C@@H](CO)C(=O)N[C@@H](CC(N)=O)C(=O)N[C@@H](CCCNC(=N)N)C(=O)O)[C@@H](C)O`, the IC50 in experiment [1] (DRB1 *0101) turned out to be 0.604 µM; in experiment [2] (DRB1 *0401), 0.048 µM; in experiment [8] (DRB1 *0405), 0.852 µM; in [11] (DRB1 *0901), 4.4 µM; in experiment [10] (DRBI *1302), 0.099 µM; in [6], 1.88 µM.
Turning to `CC(C)C[C@H](NC(=O)[C@@H](NC(=O)[C@H](C)NC(=O)[C@H](CCC(=O)O)NC(=O)[C@H](CO)NC(=O)[C@H](CC(C)C)NC(=O)[C@H](CC(C)C)NC(=O)[C@H](C)NC(=O)[C@H](CC(C)C)NC(=O)CNC(=O)[C@H](CCC(N)=O)NC(=O)[C@H](Cc1c[nH]c2ccccc12)NC(=O)[C@@H](NC(=O)[C@H](CCC(=O)O)NC(=O)[C@@H](N)C(C)C)C(C)C)C(C)C)C(=O)O`, the IC50 came out at 0.086 µM in experiment [1] (DRB1 *0101); 1.31 µM in [2] (DRB1 *0401); 0.079 µM in experiment [8] (DRB1 *0405); 13.4 µM in experiment [9]; 8.15 µM in [11] (DRB1 *0901); 5.16 µM in experiment [4]. The IC50 was 4.47 µM in experiment [10] (DRBI *1302), 0.058 µM in experiment [5] (DRBI *1501) and 1.33 µM in [6].
As for QKEDAAVTIYEMLQN, the IC50 stood at 8.38 µM in experiment [1] (read-out: DRB1 *0101); 9.44 µM in experiment [2] (read-out: DRB1 *0401); 0.785 µM in experiment [8] (read-out: DRB1 *0405); 5.99 µM in experiment [11] (read-out: DRB1 *0901); 7.31 µM in experiment [10] (read-out: DRBI *1302); 1.15 µM in [5] (read-out: DRBI *1501).
Consider REETQQKSNLELLR, for which the IC50 in [1] (read-out: DRB1 *0101) is 8.92 µM; in experiment [2] (read-out: DRB1 *0401), 9.34 µM; in experiment [9] (read-out: DRB1 *0802) it was 22.5 µM; in experiment [11] (read-out: DRB1 *0901), 9.68 µM.
Turning to VDAQGTLSKAFKLGGRDSRS, the IC50 in experiment [1] (read-out: DRB1 *0101) came to 0.025 µM; in experiment [2] (read-out: DRB1 *0401), 1.6 µM; in experiment [3] (read-out: DRB1 *0701), 1.17 µM.
As to VLERYLLEAYEAENI, the IC50 in experiment [1] (read-out: DRB1 *0101) was 0.933 µM; in [2] (read-out: DRB1 *0401), 2.6 µM; in experiment [8] (read-out: DRB1 *0405), 5.02 µM; in experiment [3] (read-out: DRB1 *0701), 13.1 µM; in experiment [11] (read-out: DRB1 *0901), 6.38 µM.

For the origin of these results see US20060079453A1, “Hla binding peptides and their uses” (priority 2002, published 2006).
